Chains of the proteins cited; added tags and fusions are not shown.
Neuropilin-1 (Homo sapiens), O14786, UniProt O14786, whole entry, looked up: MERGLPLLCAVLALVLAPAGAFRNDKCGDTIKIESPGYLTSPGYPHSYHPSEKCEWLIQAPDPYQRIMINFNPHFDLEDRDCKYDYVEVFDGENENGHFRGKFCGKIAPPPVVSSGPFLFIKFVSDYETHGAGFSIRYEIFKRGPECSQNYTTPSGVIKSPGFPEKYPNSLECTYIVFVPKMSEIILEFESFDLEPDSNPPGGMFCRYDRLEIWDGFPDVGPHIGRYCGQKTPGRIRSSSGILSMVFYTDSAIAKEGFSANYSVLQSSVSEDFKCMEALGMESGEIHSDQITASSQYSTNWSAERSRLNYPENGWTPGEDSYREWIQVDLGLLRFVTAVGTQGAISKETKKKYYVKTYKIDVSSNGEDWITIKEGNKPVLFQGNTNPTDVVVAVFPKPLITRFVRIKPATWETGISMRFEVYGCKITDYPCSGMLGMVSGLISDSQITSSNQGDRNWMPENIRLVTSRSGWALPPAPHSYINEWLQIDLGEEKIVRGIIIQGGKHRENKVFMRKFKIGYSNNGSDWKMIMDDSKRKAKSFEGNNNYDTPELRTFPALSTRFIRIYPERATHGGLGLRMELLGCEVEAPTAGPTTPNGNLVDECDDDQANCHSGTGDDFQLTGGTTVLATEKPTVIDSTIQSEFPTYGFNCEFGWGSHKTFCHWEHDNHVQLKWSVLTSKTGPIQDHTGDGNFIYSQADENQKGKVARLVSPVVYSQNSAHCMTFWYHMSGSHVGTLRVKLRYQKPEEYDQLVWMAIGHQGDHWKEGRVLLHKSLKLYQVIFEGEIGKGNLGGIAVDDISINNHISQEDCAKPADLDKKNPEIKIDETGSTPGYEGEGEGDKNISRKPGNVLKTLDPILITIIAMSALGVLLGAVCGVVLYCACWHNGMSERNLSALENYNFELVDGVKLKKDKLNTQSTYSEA
Melanocortin receptor 4 (Homo sapiens), P32245, UniProt P32245, whole entry, looked up: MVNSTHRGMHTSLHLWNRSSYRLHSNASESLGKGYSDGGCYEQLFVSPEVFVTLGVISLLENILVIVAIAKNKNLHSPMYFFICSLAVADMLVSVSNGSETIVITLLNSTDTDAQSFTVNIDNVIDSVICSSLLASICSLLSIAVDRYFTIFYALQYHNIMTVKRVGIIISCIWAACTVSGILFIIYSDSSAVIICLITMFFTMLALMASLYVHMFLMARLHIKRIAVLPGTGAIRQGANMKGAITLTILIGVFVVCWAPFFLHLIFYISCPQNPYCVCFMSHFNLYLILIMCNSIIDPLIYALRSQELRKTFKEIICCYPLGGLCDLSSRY
ADP-ribosylation factor GTPase-activating protein 1 (Rattus norvegicus), Q62848, UniProt Q62848, whole entry, looked up: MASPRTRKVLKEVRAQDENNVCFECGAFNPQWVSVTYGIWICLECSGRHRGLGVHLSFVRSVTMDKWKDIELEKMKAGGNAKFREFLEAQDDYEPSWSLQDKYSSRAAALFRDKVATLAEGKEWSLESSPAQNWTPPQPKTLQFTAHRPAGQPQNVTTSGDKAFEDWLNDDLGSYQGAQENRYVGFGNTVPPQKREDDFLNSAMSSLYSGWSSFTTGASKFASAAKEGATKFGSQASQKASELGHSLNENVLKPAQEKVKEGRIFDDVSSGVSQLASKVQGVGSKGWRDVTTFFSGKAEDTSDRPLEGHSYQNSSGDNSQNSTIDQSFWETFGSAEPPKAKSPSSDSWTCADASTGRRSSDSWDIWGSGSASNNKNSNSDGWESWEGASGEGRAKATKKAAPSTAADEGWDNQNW

# Source: PubChem BioAssay
# This is a sample that favours compounds with a hit; in the whole collection about 2.3% have one here.
# CendR NRP1 mod – modulators of CendR peptide binding to NRP-1, primary screen, biochemical, fluorescence polarization, uHTS | Neuropilin-1 (Homo sapiens), O14786 | FAM-RPARPAR peptide binding to NRP-1 | inhibition, % at 25 µM | 360,000 compounds, 0.85% hits | AID 602438, 2012;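 active = inhibition or corrected inhibition above about 18%, plus a signal ratio from 0.5 to 1.5, limit read from the data, passing the limit was not always enough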
# ASAP1 GAP inh – inhibitors of human ASAP1 ArfGAP activity, primary screen, biochemical, fluorescence polarization | Arf-GAP with SH3 domain, ANK repeat and PH domain-containing protein 1 (Homo sapiens), … | ASAP1-stimulated ARF1 GTP hydrolysis, GDP FP detection | inhibition, % at 16.5 µM | 360,000 compounds, 0.19% hits | AID 624377, 2012; in the data active = inhibition above about 25%;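 also: 0% = vehicle with enzyme and substrate and 100% = no enzyme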
# Yeast UUG start – modulators of start codon recognition fidelity in yeast; AID 602363; activity score, % at 18.7 µM; S. cerevisiae UUG-firefly luciferase reporter, luminescence/redox ratio; 0.13% of 350,000 active;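 active = replicate mean at a twofold rise or more, about +100% in these data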;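 note: firefly luciferase made from a UUG start codon reports start codon fidelity; reporter light over untreated wells divided by growth signal over untreated wells; some hits fall short of that in this replicate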
# MC4R barr agon – MC4R agonists recruiting beta-arrestin, primary screen, cell-based, luminescence, agonist arm of biased-ligand search; U2OS MC4R beta-arrestin complementation; percent of melanotan II response, DMSO zero; Melanocortin receptor 4 (Homo sapiens), P32245; activation, % at 8.9 µM; 360,000 compounds, 0.98% hits;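 active = activation above a per-plate cutoff, the mean activation of sample wells on that plate plus 3 SD, cut at about 8% in these data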
# ARFGAP1 inhibitor – inhibitors of rat ARFGAP1 GAP activity, primary screen, biochemical, fluorescence polarization, GDP tracer; Arfgap1-stimulated ARF1 GTP hydrolysis, GDP FP detection; AID 651572, 2012; 360,000 compounds, 0.26% hits; inhibition, % at 16.5 µM; ADP-ribosylation factor GTPase-activating protein 1 (Rattus norvegicus), Q62848;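 active = inhibition above a per-plate limit, mean inhibition of low control wells plus 3 SD, cut at about 25% in these data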;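 also: 0% = DMSO wells with enzyme and 100% = wells lacking Arfgap1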
#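 Assay system: purified rat His6-Arfgap1 residues 1-136 (GAP domain); Reagent: human Δ17 ARF1 bound to GTP; Dosing: 16.5 µM single point, 1.26% DMSO; Times: GTP hydrolysis reaction 2 h at 25 °C; Signal: FP, GDP Alexa 633 tracer displaced from anti-GDP antibody, 620/688 nm; Measure: % inhibition from polarization.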
# MC4R antagonist – MC4R antagonists of cAMP signaling, primary screen, cell-based, TR-FRET, antagonist arm of biased-ligand search. Melanocortin receptor 4 (Homo sapiens), P32245. MC4R-expressing cells, MTII-stimulated cAMP, LANCE TR-FRET. inhibition, % at 6.5 µM. 360,000 compounds, 0.48% hits;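 active = inhibition above its plate's cutoff, the mean of tested wells on that plate plus 3 SD, cut at about 29% in these data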;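 also: 0% = Melanotan II alone and 100% = Melanotan II plus saturating MCL0020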
#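 Material: human MC4R-expressing U2OS cells. Probe or stimulus: Melanotan II challenge. Dosing: 6.5 µM single dose. Times: 30-min compound, 1-h challenge, 1-h detection, room temperature. Technique: TR-FRET with Eu-cAMP and labeled anti-cAMP, 671 nm. Replication: singlicate.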
# Numbers without * were called inactive; nt = no result given.
# Values run as follows: CendR NRP1 mod | ASAP1 GAP inh | Yeast UUG start | MC4R barr agon | ARFGAP1 inhibitor | MC4R antagonist
- COc1ccc(C(=O)C2CC2c2ccc3c(c2)OCO3)cc1 (centres undefined)
→ 28* | 2 | nt | 2 | -1 | 14
- NC1=CC(=O)C(=O)c2ccccc21
→ 29* | 5 | -11 | 1 | -1 | -6
- O=c1[nH]c(SCc2ccccc2Cl)nc2c1cnn2-c1ccccc1
→ -20 | 1 | -4 | 9.3* | -3 | -9
- Oc1ccc2ccccc2c1CN1CCCCC1
→ 26* | 7 | -6 | -2 | 0 | 3
- C[C@@H]1CN([C@H](C)CO)C(=O)c2cc(NC(=O)Nc3cccc4ccccc34)ccc2O[C@@H](C)CCCCO[C@@H]1CN(C)S(=O)(=O)c1ccc(F)cc1
→ nt | nt | -12 | nt | nt | nt
- CCC(=O)N1CC[C@H]2[C@@H]1c1cc(-c3cccc(OC)c3)ccc1N(C)[C@H]2CO
→ nt | nt | 2 | nt | nt | nt
- CCN(CC(=O)Nc1ccc(OC)cc1)CC(=O)Nc1cccc(S(=O)(=O)N2CCOCC2)c1
→ 34* | 1 | -1 | 0 | 14 | 14
- CC(=O)NC(CC(=O)Nc1cccc(S(=O)(=O)N2CCOCC2)c1)c1ccccc1 (centres undefined)
→ 24* | -3 | -13 | -1 | 0 | 6
- COc1ccc(CC(=O)Nc2ccc3c(c2)OCO3)cc1S(=O)(=O)N1CCOCC1
→ 22* | 10 | -5 | 0 | 8 | -3
- C[C@@H]1CN([C@@H](C)CO)C(=O)c2cccc(NC(=O)c3cnccn3)c2O[C@H]1CN(C)C(=O)NC1CCCCC1
→ nt | nt | -3 | nt | nt | nt
- CN(C)CCCN1C(=O)c2cccc3c([N+](=O)[O-])ccc(c23)C1=O
→ 29* | 7 | nt | -3 | 2 | -11
- COCCNC(=O)CN1CCCCCC1
→ 26* | -5 | -3 | -2 | 0 | 2
- COc1ccc(-c2c(-c3ccccc3OC)oc3ccccc23)cn1
→ 27* | 5 | -18 | 2 | 0 | 7
- CCOC(=O)c1cnc2ccc(OCC)cc2c1N1CCN(c2ccccc2OC)CC1
→ -3 | nt | 16 | 1 | nt | 32*
- CCOc1ccc2ncc(C(=O)c3ccc(OC)cc3)c(N3CCN(CC)CC3)c2c1
→ -5 | nt | -18 | 0 | nt | 10
- CC(C)Sc1snnc1-c1ccccc1
→ 2 | -5 | nt | 8.9* | 5 | -5
- C[C@@H]1CN([C@@H](C)CO)C(=O)c2cc(NC(=O)CCCN(C)C)ccc2O[C@@H]1CN(C)S(=O)(=O)c1ccc(F)cc1
→ nt | nt | -4 | nt | nt | nt
- CN1CCC(N(C)C(=O)c2cc(S(=O)(=O)N(C)c3ccccc3)ccc2Cl)CC1
→ -6 | -8 | -8 | 1 | 6 | 11
- CN1CCC(N(C)C(=O)c2ccc(Cl)c(S(=O)(=O)N(C)c3ccc(Cl)cc3)c2)CC1
→ 33* | -1 | 2 | 2 | -5 | 0
- COc1cc(CN2CCN(Cc3ccc(SC)cc3)CC2)cc(OC)c1O
→ 23* | -5 | nt | -3 | -2 | 5
- CCCCn1c(N)c(N(CCOC)C(=O)COC(=O)/C=C/c2ccc(Br)cc2)c(=O)[nH]c1=O
→ 23* | 5 | -7 | -2 | 4 | -1
- O=C(O)c1cccc(S(=O)(=O)N2CCCC2)c1
→ 4 | nt | -13 | 0 | nt | 3
- O=C(O)c1cccc(S(=O)(=O)N2CCN(C(c3ccccc3)c3ccccc3)CC2)c1
→ 36* | 4 | nt | -3 | 1 | -1
- CCCNC(=O)Nc1ccc2c(c1)OC[C@@H](C)N(Cc1ccccn1)C[C@H](C)[C@@H](OC)CN(C)C2=O
→ nt | nt | -9 | nt | nt | nt
- CN1CCc2cc3c(c4c2[C@H]1[C@H](O)c1ccccc1-4)OCO3
→ 47* | 9 | -18 | -1 | 3 | -3
- O=C(CC(=O)c1ccccc1)Nc1ccc([N+](=O)[O-])cc1
→ 25* | -5 | -5 | -3 | 9 | 0

# MC4R antagonist, what is marked active above.
# Values run as follows: CendR NRP1 mod | ASAP1 GAP inh | Yeast UUG start | MC4R barr agon | ARFGAP1 inhibitor | MC4R antagonist
- CCOC(=O)c1cnc2ccc(OCC)cc2c1N1CCN(c2ccccc2OC)CC1
→ -3 | nt | 16 | 1 | nt | 32*

# Structures from the list above with a COOH group:
# Values run as follows: CendR NRP1 mod | ASAP1 GAP inh | Yeast UUG start | MC4R barr agon | ARFGAP1 inhibitor | MC4R antagonist
- O=C(O)c1cccc(S(=O)(=O)N2CCCC2)c1
→ 4 | nt | -13 | 0 | nt | 3
- O=C(O)c1cccc(S(=O)(=O)N2CCN(C(c3ccccc3)c3ccccc3)CC2)c1
→ 36* | 4 | nt | -3 | 1 | -1
